Earlier results, collected in patent US20260317706A1, “COMPOSITION FOR INDUCING STEM CELLS TO DIFFERENTIATE INTO ASTROCYTES, CONTAINING CPI-455” (CHUNG ANG UNIVERSITY INDUSTRY ACADEMIC COOPERATION …, priority 2023, published 2026).

System: STAT3
Settings: human oral carcinoma cells; cited from earlier work

B1: recombinant BMP2: one of the TGF-beta family cytokines, a polypeptide dimer composed of 114 amino acids (protein, UniProt P12643 283-396, looked up)
Bone morphogenetic protein 2: QAKHKQRKRLKSSCKRHPLYVDFSDVGWNDWIVAPPGYHAFYCHGECPFPLADHLNSTNHAIVQTLVNSVNSKIPKACCVPTELSAISMLYLDENEKVVLKNYQDMVVEGCGCR
In the case of B1, the STAT3 phosphorylation is given as “increased”.
